Source: patent US6645976B1 (Eli Lilly and Company, priority 1994, dated 2003)

Biological target: T1, recombinant human secreted phospholipase A2 (Homo sapiens, UniProt P14555)
T1 sequence (P14555 21-144): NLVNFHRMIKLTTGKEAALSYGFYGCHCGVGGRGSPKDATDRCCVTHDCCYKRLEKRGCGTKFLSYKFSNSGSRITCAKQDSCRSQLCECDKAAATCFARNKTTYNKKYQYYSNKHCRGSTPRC
Experiment: sPLA2 Chromogenic Assay (Assay 1)
Type: biochemical
Conditions: diheptanoyl thio-PC substrate, pH 7.5, 40° C. for 30 minutes, absorbance at 405 nanometers

2-(3-Biphenyl-2-ylmethyl-8-(1-cyclopentyloxycarbonyloxymethyloxy-carbamoanecarbonyl-2-ethylindolizin-1-yl)glyoxylamide [Compound 59f]
IC50: 0.07 µM
